From PubChem BioAssay AID1259374 (The Scripps Research Institute Molecular Screening Center, 2018)
Only a part is listed here, and it is no random draw. The source made the active and inactive calls. Cut-off read from the data, not from the text of the source: active = inhibition above about 50%; inactive = the rest.

Protein sequences, listed by entry. Tags and fused reporters are not part of them. Lines headed by an entry give the natural chain unless they say otherwise; changes in a name come on top.
UniProt O75030: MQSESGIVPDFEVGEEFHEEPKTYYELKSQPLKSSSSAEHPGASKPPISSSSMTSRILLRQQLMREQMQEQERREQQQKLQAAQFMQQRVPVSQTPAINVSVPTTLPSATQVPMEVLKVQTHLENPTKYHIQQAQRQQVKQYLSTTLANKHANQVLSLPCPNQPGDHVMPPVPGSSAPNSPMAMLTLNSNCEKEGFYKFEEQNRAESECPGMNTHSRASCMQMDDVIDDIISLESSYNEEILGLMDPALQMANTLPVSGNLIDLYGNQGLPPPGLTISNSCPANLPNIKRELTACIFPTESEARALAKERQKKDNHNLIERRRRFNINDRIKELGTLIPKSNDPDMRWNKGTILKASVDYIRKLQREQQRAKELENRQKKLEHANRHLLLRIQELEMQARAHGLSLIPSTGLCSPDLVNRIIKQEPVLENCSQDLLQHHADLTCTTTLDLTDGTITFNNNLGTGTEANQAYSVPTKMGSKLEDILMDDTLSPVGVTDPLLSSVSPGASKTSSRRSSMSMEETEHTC

Biological target: Microphthalmia-associated transcription factor (Homo sapiens) (UniProt O75030)
Assay: MITF inhibitors, primary screen, biochemical, AlphaScreen, human (AID 1259374);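 note: 0% = vehicle wells with protein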
Conditions: AlphaScreen MITF homodimerization, bead proximity signal; at 2.6 µM; stronger effect = higher value

| SMILES | inhibition |
| --- | --- |
| O=c1c2cc([N+](=O)[O-])ccc2[nH]c2c([N+](=O)[O-])cc([N+](=O)[O-])cc12 | inactive: 20.7% |
| CC(=O)N(Cc1ccco1)C1CCN(CCc2ccccn2)CC1 | inactive: 13.4% |
| CC(C)OP(=O)(OC(C)C)C(C)N (stereo not given) | active: 58.9% |
| CN(C)c1ccc2c(c1)N1Cc3ccccc3C1=NP2(=O)c1ccccc1 (stereo not given) | inactive: -3.42% |
| Cc1c([N+](=O)[O-])cc(C(=O)c2cc([N+](=O)[O-])c(C)c([N+](=O)[O-])c2)cc1[N+](=O)[O-] | inactive: -11.4% |
| O=C(COC(=O)C(O)(c1ccccc1)c1ccccc1)NC12CC3CC(CC(C3)C1)C2 | inactive: -3.87% |
| ClC1CSc2nc3ccccc3n2C1 (stereo not given) | inactive: 3.95% |
| O=C(NNc1ccc([N+](=O)[O-])cc1[N+](=O)[O-])c1cccc([N+](=O)[O-])c1 | inactive: 11.4% |
| O=C(c1cccc([N+](=O)[O-])c1)c1ccc([N+](=O)[O-])c([N+](=O)[O-])c1 | inactive: 1.85% |
| O=[N+]([O-])c1ccc(N/N=C/c2ccc([N+](=O)[O-])o2)c([N+](=O)[O-])c1 | inactive: 5.13% |
| COC(=O)N(c1ccccc1)P1(=S)OCC(C)O1 (stereo not given) | inactive: 17.6% |
| O=P1(c2ccccc2)N=C(c2ccccc2)NC(C(Cl)(Cl)Cl)=N1 (stereo not given) | inactive: 6.26% |
| O=C(Nc1cccc(F)c1)N(Cc1cccnc1)C1CCN(CCc2cccs2)CC1 | inactive: 0.97% |
| CCOP(=O)(OCC)C(=O)c1ccccc1I | inactive: 2.51% |
| O=C(NNC1=NCC(CBr)S1)c1ccccc1 (stereo not given) | inactive: 1.63% |
| CCOC(=O)c1ccc(NC2=NCC(CBr)S2)cc1 (stereo not given) | inactive: 18.7% |
| Cc1ccc2nc(NCCCl)[nH]c2c1 | inactive: -1.22% |
| CCOP(=O)(OCC)C(NC(=O)OC)C(Cl)(Cl)Cl (stereo not given) | inactive: -0.5% |
| O=[N+]([O-])c1ccc(NCCCCNc2ccc([N+](=O)[O-])cc2[N+](=O)[O-])c([N+](=O)[O-])c1 | inactive: -0.99% |
| CCOP1(=O)O/C(=C\Cl)CN1c1ccccc1 (stereo not given) | inactive: -0.82% |
| Cc1ccc([N+](=O)[O-])c2no[n+]([O-])c12 | active: 105% |
| O=P1(Nc2nc3ccc(Cl)cc3s2)COc2ccccc2O1 (stereo not given) | inactive: 27.1% |
| CN(C)c1ccc(/[N+]([O-])=C/c2c([N+](=O)[O-])cc([N+](=O)[O-])cc2[N+](=O)[O-])cc1 | inactive: 21.2% |
| O=P1(Nc2nncs2)C=C(c2ccccc2)SC(c2ccccc2)=C1 | inactive: -4.09% |
| CNc1c([N+](=O)[O-])cc([N+](=O)[O-])c2nonc12 | inactive: 18.3% |
